Target: human islet amyloid polypeptide1-37 (hIAPP) (Homo sapiens, UniProt P10997)
Test: AFM morphology of aggregates, hIAPP
Format: biochemical
Settings: pure hIAPP 20 μM, 24 h
How it was run: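 hIAPP at 20 μM was incubated at 37 °C, alone or with 5–20 μM defensin. AFM images were taken at time points of the ThT kinetics runs, including 24 h and 36 h. Aggregate heights and lengths were measured from the images and reported as maximum, mean and minimum values.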

Amino acid sequences for entries named in this document (tags omitted). Residues count along the entry.
UniProt P10997, 34-70: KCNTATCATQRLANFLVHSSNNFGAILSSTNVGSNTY

`CC[C@H](C)[C@H](NC(=O)[C@H](C)NC(=O)CNC(=O)[C@H](Cc1ccccc1)NC(=O)[C@H](CC(N)=O)NC(=O)[C@H](CC(N)=O)NC(=O)[C@H](CO)NC(=O)[C@H](CO)NC(=O)[C@H](Cc1c[nH]cn1)NC(=O)[C@@H](NC(=O)[C@H](CC(C)C)NC(=O)[C@H](Cc1ccccc1)NC(=O)[C@H](CC(N)=O)NC(=O)[C@H](C)NC(=O)[C@H](CC(C)C)NC(=O)[C@H](CCCNC(=N)N)NC(=O)[C@H](CCC(N)=O)NC(=O)[C@@H](NC(=O)[C@H](C)NC(=O)[C@@H]1CSSC[C@H](NC(=O)[C@@H](N)CCCCN)C(=O)N[C@@H](CC(N)=O)C(=O)N[C@@H]([C@@H](C)O)C(=O)N[C@@H](C)C(=O)N[C@@H]([C@@H](C)O)C(=O)N1)[C@@H](C)O)C(C)C)C(=O)N[C@@H](CC(C)C)C(=O)N[C@@H](CO)C(=O)N[C@@H](CO)C(=O)N[C@H](C(=O)N[C@@H](CC(N)=O)C(=O)N[C@H](C(=O)NCC(=O)N[C@@H](CO)C(=O)N[C@@H](CC(N)=O)C(=O)N[C@H](C(=O)N[C@@H](Cc1ccc(O)cc1)C(N)=O)[C@@H](C)O)C(C)C)[C@@H](C)O` [hIAPP] was tested, and the “average height of fibrils” value was 15 nm and the “average length of fibrils” value (N up to 40) was 483 nm.

From publication PMC9214849 (Chemical Science, 2022)
